Reference: US12393007B2, “Method for adapting optical properties of an immersion mixture, and immersion mixtures and components thereof” (Carl Zeiss Microscopy GmbH, priority 2018, dated 2025)

Test: Refractive index ne at 23° C., reference wavelength 546.1 nm
Type: physicochemical
Conditions: pure substance

For OCCN(CCO)CCO, the “ne (refractive index) of the substance” value was 1.4868.

This is a selection: effects in other tests are not listed, and their absence says nothing.
